Our source for the Ki values is paper PMC11181336, “Discovery of ITI-333, a Novel Orally Bioavailable Molecule Targeting Multiple Receptors for the Treatment of Pain and Other Disorders” (Journal of Medicinal Chemistry, 2024).

By UniProt entry, the sequences of proteins in these tests, tags left out.
UniProt P14416, whole entry, looked up: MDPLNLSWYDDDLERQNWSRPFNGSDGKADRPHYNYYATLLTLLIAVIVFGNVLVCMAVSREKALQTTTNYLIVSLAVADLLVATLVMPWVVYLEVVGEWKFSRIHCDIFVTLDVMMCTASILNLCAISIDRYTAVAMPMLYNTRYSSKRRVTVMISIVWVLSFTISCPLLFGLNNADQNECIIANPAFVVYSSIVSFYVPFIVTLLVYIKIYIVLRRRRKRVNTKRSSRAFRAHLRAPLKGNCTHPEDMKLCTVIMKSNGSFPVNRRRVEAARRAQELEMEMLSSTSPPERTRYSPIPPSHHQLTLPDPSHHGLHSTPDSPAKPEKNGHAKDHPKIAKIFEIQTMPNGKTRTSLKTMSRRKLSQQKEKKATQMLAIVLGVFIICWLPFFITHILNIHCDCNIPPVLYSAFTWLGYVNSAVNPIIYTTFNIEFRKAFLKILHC
UniProt P28223, whole entry, looked up: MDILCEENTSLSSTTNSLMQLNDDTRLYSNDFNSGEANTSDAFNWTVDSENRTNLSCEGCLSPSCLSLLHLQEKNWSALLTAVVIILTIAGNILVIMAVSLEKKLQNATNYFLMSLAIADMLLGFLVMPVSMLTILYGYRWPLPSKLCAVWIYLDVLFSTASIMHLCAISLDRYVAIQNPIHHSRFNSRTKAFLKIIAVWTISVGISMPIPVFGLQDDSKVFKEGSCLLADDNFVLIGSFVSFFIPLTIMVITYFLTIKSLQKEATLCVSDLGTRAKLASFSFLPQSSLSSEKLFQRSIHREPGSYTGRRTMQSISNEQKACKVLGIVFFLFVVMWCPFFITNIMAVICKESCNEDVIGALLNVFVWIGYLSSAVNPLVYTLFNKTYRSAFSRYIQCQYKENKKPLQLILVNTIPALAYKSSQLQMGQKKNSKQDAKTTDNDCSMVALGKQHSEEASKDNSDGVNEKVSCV

SMILES strings stand for the structures.

In general, Ki refers to the equilibrium dissociation constant of an inhibitor or competing ligand from its target.

Experiment [1] has as its target human recombinant dopamine D2 short receptor (Homo sapiens, UniProt P14416). Kind of experiment: Dopamine D2 receptor binding, [3H]7-OH-DPAT displacement. To be noted: read-out: D2 Ki.
Experiment [2] addresses human full-length recombinant serotonin 5-HT2A receptors (Homo sapiens, UniProt P28223). Kind of experiment: 5-HT2A receptor radioligand binding, [125I]DOI displacement. To be noted: read-out: 5-HT2A Ki.

Turning to `O=C1CN2c3c(cccc3[C@@H]3CN(CCCOc4ccc(F)cc4O)CC[C@@H]32)N1`, the Ki was determined as 67 nM in experiment [1] and 19 nM in experiment [2].

As for `O=C1CN2c3c(cccc3[C@@H]3CN(CCCSc4ccc(F)cc4)CC[C@@H]32)N1`, the Ki in experiment [2] turned out to be 2.5 nM.

On to `Cn1nc(CCCN2CC[C@H]3[C@@H](C2)c2cccc4c2N3CC(=O)N4)c2ccc(F)cc21`, for which the Ki in experiment [2] was 12.4 nM.

Take `CC1(C)C(=O)Nc2cccc3c2N1[C@H]1CCN(CCCOc2ccc(F)cc2)C[C@@H]31`: the Ki in experiment [1] was found to be 53 nM; in experiment [2] it was 8.6 nM.

Take `O=C1CN2c3c(cccc3[C@@H]3CN(CCCOc4ccc(F)cc4F)CC[C@@H]32)N1`: the Ki in experiment [2] stood at 15.2 nM.

On to `O=C1CN2c3c(cccc3[C@@H]3CN(CCCOc4ccc(F)c(O)c4)CC[C@@H]32)N1`, for which, in experiment [2], the Ki stood at 110 nM.

As for `O=C1CN2c3c(cccc3[C@@H]3CN(CCCCc4ccc(F)cc4)CC[C@@H]32)N1`, the inhibition constant Ki in experiment [2] was determined as 3.7 nM.
